Source: paper PMC8164609 (Environmental Science and Pollution Research International, 2021)

Tested on: MCF-7 cells
Test: In vitro micronucleus assay for cytokinesis block
Format: cell-based, human
Settings: 24 h; for Micronuclei per 1000 binucleated cells, Replicates: single replicate values

O=c1c(-c2ccc(O)cc2)coc2cc(O)cc(O)c12 [genistein]
Micronuclei per 1000 binucleated cells, Average (10^−7 M): 17 per 1000 binucleated cells | Micronuclei per 1000 binucleated cells, Replicates (10^−7 M): 17 per 1000 binucleated cells and 15 per 1000 binucleated cells and 19 per 1000 binucleated cells | Micronuclei per 1000 binucleated cells, Average (10^−8 M): 15.33 per 1000 binucleated cells | Micronuclei per 1000 binucleated cells, Replicates (10^−8 M): 14 per 1000 binucleated cells and 16 per 1000 binucleated cells (2×)

“And” between values parts separate entries of the source, which are not always exact repeats. Equal values may be shown once.
